Data as given in patent publication US10280159B2 (AbbVie Deutschland GmbH & Co. KG, priority 2015, dated 2019).

Protein sequences, listed by entry. Tags and fused reporters are not part of them.
UniProt O95977, whole entry: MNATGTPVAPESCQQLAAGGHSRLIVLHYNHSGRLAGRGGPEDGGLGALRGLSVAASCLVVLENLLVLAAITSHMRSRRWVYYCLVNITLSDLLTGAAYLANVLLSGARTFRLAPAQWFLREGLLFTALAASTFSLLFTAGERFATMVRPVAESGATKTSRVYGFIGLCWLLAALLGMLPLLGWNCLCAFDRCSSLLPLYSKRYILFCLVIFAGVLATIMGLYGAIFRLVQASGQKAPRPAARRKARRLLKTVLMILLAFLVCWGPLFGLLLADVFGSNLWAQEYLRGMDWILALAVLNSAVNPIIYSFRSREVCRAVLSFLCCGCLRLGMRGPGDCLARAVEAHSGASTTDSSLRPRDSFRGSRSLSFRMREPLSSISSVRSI
UniProt Q9H228, whole entry: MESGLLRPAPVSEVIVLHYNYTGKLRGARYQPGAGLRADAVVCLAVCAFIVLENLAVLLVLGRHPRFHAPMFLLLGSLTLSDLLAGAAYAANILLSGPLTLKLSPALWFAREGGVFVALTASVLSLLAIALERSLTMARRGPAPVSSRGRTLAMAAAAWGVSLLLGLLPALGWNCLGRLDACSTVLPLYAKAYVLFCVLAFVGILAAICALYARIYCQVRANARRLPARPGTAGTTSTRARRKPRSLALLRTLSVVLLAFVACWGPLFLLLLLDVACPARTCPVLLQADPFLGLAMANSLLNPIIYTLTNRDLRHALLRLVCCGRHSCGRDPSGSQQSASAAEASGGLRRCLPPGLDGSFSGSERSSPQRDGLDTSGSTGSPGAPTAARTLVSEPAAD
UniProt P21453, whole entry: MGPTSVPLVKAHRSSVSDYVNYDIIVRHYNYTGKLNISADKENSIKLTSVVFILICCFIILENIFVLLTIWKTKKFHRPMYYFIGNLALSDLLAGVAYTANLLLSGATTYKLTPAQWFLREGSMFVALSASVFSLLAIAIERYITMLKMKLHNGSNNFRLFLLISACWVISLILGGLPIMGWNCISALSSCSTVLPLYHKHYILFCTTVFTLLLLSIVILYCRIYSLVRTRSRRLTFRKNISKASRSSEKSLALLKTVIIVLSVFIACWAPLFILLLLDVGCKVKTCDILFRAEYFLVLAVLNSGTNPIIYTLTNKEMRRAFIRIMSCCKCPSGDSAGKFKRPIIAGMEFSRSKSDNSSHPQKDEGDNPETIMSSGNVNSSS
UniProt Q99500, whole entry: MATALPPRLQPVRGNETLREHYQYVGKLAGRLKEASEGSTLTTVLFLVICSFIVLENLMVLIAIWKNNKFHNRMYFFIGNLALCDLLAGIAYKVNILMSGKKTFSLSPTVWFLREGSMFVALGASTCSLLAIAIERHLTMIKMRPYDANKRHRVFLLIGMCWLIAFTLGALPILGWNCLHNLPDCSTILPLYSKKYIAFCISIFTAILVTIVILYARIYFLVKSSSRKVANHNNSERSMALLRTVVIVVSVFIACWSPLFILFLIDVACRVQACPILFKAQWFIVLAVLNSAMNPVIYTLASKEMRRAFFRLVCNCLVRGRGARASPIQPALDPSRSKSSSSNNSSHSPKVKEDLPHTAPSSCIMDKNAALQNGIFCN

Assays:
Assay type in all cases: cell-based
human S1PR4 = human S1PR4 (Homo sapiens, UniProt O95977); test: Intracellular Ca2+ release (FLIPR) agonist potency, S1P4; settings: read-out: S1P4 EC50; recombinant CHO-K1 cells expressing human S1PR4, aequorin, Gq/i5; Calcium 5 FLIPR
human S1PR5 = human S1PR5 (Homo sapiens, UniProt Q9H228); test: Intracellular Ca2+ release (FLIPR) agonist potency, S1P5; settings: read-out: S1P5 EC50 range; recombinant CHO-K1 cells expressing human S1PR5, aequorin, Gq/i5; Calcium 5 FLIPR
human S1PR1 = human S1PR1 (Homo sapiens, UniProt P21453); test: Intracellular Ca2+ release (FLIPR) agonist potency, S1P1; settings: read-out: S1P1 EC50; recombinant CHO-K1 cells expressing human S1PR1, aequorin, Gq/i5; Calcium 5 FLIPR
human S1PR3 = human S1PR3 (Homo sapiens, UniProt Q99500); test: Intracellular Ca2+ release (FLIPR) agonist potency, S1P3; settings: read-out: S1P3 EC50; recombinant CHO-K1 cells expressing human S1PR3, aequorin, Gq/i5; Calcium 5 FLIPR

Row | SMILES | EC50 (human S1PR4) [nM] | EC50 (human S1PR5) [nM] | EC50 (human S1PR1) [nM] | EC50 (human S1PR3) [nM]
1 | CCc1cccc(Cl)c1COc1ccc2c(c1)CCC(N1CC(C(=O)NOC)C1)C2 (stereo not shown) | > 1000 | 10 to 100 | > 1000 | > 1000
2 | Cc1ccc(C(F)(F)F)c(COc2ccc3c(c2)CCC(OCCC(=O)O)C3)c1 (stereo not shown) | > 1000 | 1000 to 10000 | > 1000 | 
3 | O=C(O)CC1CN(C2COCc3cc(OCc4c(Cl)cccc4Cl)ccc32)C1 (stereo not shown) | > 1000 | 100 to 1000 | > 1000 | 
